In patent EP4834343A1, “THERAPEUTIC AGENT FOR NEURODEGENERATIVE DISORDER” (dated 2026):

Experiments:
[1] = system: PD patients with no combined use of levodopa; experiment: Clinical Test 1 on PD patients: side effects (adverse drug reactions); conditions: n = 37 per group
Protocol: (§1) Oral administration of Compound 2 in a daily dose of 0.25 mg once a day was started, and the oral administration was conducted once a day while the amount was increased by one stage (0.25 mg as a daily dose) in the order of 0.5 mg, 0.75 mg, and 1 mg as a daily dose unless criteria for not increasing the amount (such as a case where an adverse event with a causal relationship with the investigational drug was recognized and a case where a principal investigator or a sub-investigator determined that there was some safety problem) were met at the timing of 2 weeks, 4 weeks, and 6 weeks of administering the investigational drug. In a case where the criteria for not increasing the amount were met and it was determined to be possible to continue the investigation, the same dose was continuously administered. Note that even in the case where the same dose was continuously administered, the amount was increased when the criteria for not increasing the amount were not met at the next point of increasing the amount (at 4 weeks and 6 weeks). Hereinafter, this group will be referred to as Compound 2 administration group.
Oral administration of pramipexole hydrochloride hydrate extended-release tablet (PPX-LA) in a daily dose of 0.375 mg once a day was started, and the oral administration was conducted once a day while the amount was increased by one stage (0.375 mg or 0.75 mg as a daily dose) in the order of 0.75 mg, 1.5 mg, 2.25 mg, 3 mg, 3.75 mg, and 4.5 mg as a daily dose unless criteria for not increasing the amount were met at the timing of 1 week, 2 weeks, 3 weeks, 4 weeks, 5 weeks, and 6 weeks of administering the investigational drug. In a case where the criteria for not increasing the amount were met and it was determined to be possible to continue the investigation, the same dose was continuously administered. Note that even in the case where the same dose was continuously administered, the amount was increased when the criteria for not increasing the amount were not met at the next point of increasing the amount (at 2 weeks, 3 weeks, 4 weeks, 5 weeks, and 6 weeks). Hereinafter, this group will be referred to as the PPX-LA administration group.
(§2) As evaluation items related to safety, ESS total scores, adverse event developed states, side effect developed states, and the like were evaluated.

[2] = system: PD patients with no combined use of levodopa; experiment: Clinical Test 2 on PD patients: somnolence evaluation (ESS total score); conditions: for proportions of subjects with the ESS total scores of 11 points or more: Clinical Test 2, 7 cases; for ESS total scores: average ± standard deviation
Text: (§3) In the present invention, "the risk of somnolence as a side effect" of the non-ergot DAs means a risk of developing somnolence in the daytime, which is a safety issue of the non-ergot DAs. The degree of "the reduction of the risk of somnolence as a side effect" achieved by the pharmaceutical composition of the present invention can also be evaluated, for example, by ESS total scores. ESS is a self-managed questionnaire, and is a measure for subjects to evaluate their daytime sleepiness and doze propensity by answering eight questions. The ESS scores (sums of scores for eight items; 0 points to 3 points for each item) range from 0 to 24, and a normal range is 10 points or less. The higher the ESS scores, the higher the average sleep trend or daytime sleepiness in daily lives of the subjects (epworthsleepinessscale.com), and scores that are equal to or higher than 11 points are evaluated as pathological hypersomnia (diagnosis of narcolepsy, treatment guideline item). The effect of "reducing the risk of somnolence as a side effect" achieved by the pharmaceutical composition of the present invention can also be evaluated by, for example, a decrease in incidence rate compared to the developed states of adverse events and side effects by other non-ergot DAs, or a decrease in incidence rate and a decrease in degree of somnolence compared to the incidence frequency of somnolence during the daytime before administration of the pharmaceutical composition of the invention.
(§4) Oral administration of Compound 2 in a daily dose of 0.25 mg once a day was started, and the oral administration was conducted once a day while the amount was increased by one stage (0.25 mg or 0.5 mg as the amount administered once a day) in the order of 0.5 mg, 1 mg, 1.5 mg, and 2 mg as a daily dose unless criteria for not increasing the amount were met at the timing of 1 week, 2 weeks, 4 weeks, and 6 weeks of administering the investigational drug. In a case where the criteria for not increasing the amount were met and it was determined to be possible to continue the investigation, the same dose was continuously administered. Note that even in the case where the same dose was continuously administered, the amount was increased when the criteria for not increasing the amount were not met at the next point of increasing the amount (at 2 weeks, 4 weeks, and 6 weeks).
(§5) As evaluation items regarding effectiveness and safety, items similar to those in Example 1 were evaluated.

[3] = system: PD patients with no combined use of levodopa; experiment: Clinical Test 2 on PD patients: side effects; conditions: investigational drug administration period
Protocol: as §4, §5

[4] = system: PD patients with no combined use of levodopa; experiment: Clinical Test 2 on PD patients: effectiveness (MDS-UPDRS Part III total score); conditions: average ± standard deviation; 7 PD patients, oral once a day for 8 weeks, gradually increased 0.25-2 mg/day
Protocol: (§6) The MDS-UPDRS scores, which are one of the most representative indicators, consist of four parts (that is, Part I to Part IV), and cognitive function and mood disorders, daily life behavior, motor symptoms, motor complications are evaluated in Part I, Part II, Part III, and Part IV, respectively. In the evaluation of amelioration of motor symptoms, scores in Part III are particularly used, and lower scores from the baseline indicate higher amelioration effects.
as §4, with “Note that even in the case where the same dose was continuously administered, the amount was increased when the criteria for not increasing the amount were not met at the next point of increasing the amount (at 2 weeks, 4 weeks, and 6 weeks).” left out
as §5

[5] = system: PD patients with no combined use of levodopa; experiment: Clinical Test 1 on PD patients: somnolence evaluation (ESS total score); conditions: for ESS total scores: average ± standard deviation
Text: as §3
as §1, with “group. […]” for “group.”
as §2

[6] = system: PD patients with no combined use of levodopa; experiment: Clinical Test 1 on PD patients: effectiveness (MDS-UPDRS Part III total score); conditions: average ± standard deviation; oral once a day for 12 weeks, gradually increased (Compound 2 0.25-1 mg/day; PPX-LA 0.375-4.5 mg/day)
Protocol: as §6
as §1, with “Note that even in the case where the same dose was continuously administered, the amount was increased when the criteria for not increasing the amount were not met at the next point of increasing the amount (at 4 weeks and 6 weeks). Hereinafter, this group will be referred to as Compound 2 administration group.” left out

CCCN(C(=O)NCCN(C)C)C(=O)[C@@H]1C[C@@H]2Cc3c(sc(N)c3C#N)C[C@H]2N(C)C1
No. of Adverse drug reactions: Total, % (incidence rates of side effects) ([1]; investigational drug administration period): 13.5%
Adverse drug reactions: Abdominal discomfort, % [1]: 0.0%
Adverse drug reactions: Anxiety, % [1]: 0.0%
Adverse drug reactions: Constipation, % [1]: 8.1%
Adverse drug reactions: Hallucination, auditory, % [1]: 0.0%
Adverse drug reactions: Hallucination, visual, % [1]: 0.0%
Adverse drug reactions: Inappropriate affect, % [1]: 0.0%
Adverse drug reactions: Insomnia, % [1]: 2.7%
Adverse drug reactions: Nausea, % [1]: 0.0%
Adverse drug reactions: Somnolence, % [1]: 2.7%
Adverse drug reactions: Sudden onset of sleep, % [1]: 0.0%
Adverse drug reactions: Vomiting, % [1]: 0.0%
proportions of subjects with the ESS total scores of 11 points or more ([2]; at 0 weeks): 28.6%
ESS total scores ([2]; at 0 weeks, Clinical Test 2, 7 patients): 7.7 ± 8.4
proportions of subjects with the ESS total scores of 11 points or more ([2]; at the treatment phase final evaluation): 28.6%
ESS total scores ([2]; at the treatment phase final evaluation, 8 weeks, 0.25-2 mg/day): 8.4 ± 9.0
side effect "somnolence" ([3]; 7 cases, up to 2 mg/day): not observed
side effect "hallucination" observed ([3]; out of 7 cases, degree mild): 1 case
side effect "nausea" observed ([3]; out of 7 cases, degree mild): 1 case
amounts of change in MDS-UPDRS Part III total scores at the treatment phase final evaluation from the baseline [4]: -15.1 ± 9.0
proportions of subjects with ESS total scores of 11 points or more ([5]; at 0 weeks, Clinical Test 1): 21.6%
ESS total scores ([5]; at 0 weeks, Clinical Test 1): 5.8 ± 4.9
proportions of subjects with ESS total scores of 11 points or more ([5]; at the treatment phase final evaluation, Clinical Test 1): 13.5%
ESS total scores ([5]; at the treatment phase final evaluation, 12 weeks oral once a day, gradually increased): 5.6 ± 5.7
amounts of change in MDS-UPDRS Part III total scores at the treatment phase final evaluation from the baseline [6]: -11.5 ± 7.6
